Test results taken from paper PMC8000448, “Inhibitory Effects of Schisandra Lignans on Cytochrome P450s and Uridine 5′-Diphospho-Glucuronosyl Transferases in Human Liver Microsomes” (Pharmaceutics, 2021).
Where “and” joins values, the source holds several entries; their conditions need not be identical. Identical values can stand only once.

The chains behind the UniProt entries cited, without tags or fusion partners. Residues count along the entry.
UniProt P10632, whole entry: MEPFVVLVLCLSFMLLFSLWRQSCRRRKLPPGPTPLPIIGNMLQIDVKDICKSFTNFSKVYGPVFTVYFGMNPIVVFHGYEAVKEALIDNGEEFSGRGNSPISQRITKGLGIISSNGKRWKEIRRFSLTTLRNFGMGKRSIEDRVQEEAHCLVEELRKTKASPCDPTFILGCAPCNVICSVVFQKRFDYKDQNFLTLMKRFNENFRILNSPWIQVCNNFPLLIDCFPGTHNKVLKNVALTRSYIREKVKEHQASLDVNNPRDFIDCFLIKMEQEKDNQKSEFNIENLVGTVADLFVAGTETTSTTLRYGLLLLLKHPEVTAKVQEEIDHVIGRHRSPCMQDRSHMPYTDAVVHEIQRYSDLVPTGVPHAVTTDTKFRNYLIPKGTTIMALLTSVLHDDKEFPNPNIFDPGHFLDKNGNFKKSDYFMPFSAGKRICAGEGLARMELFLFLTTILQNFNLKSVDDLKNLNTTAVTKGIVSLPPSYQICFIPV
UniProt P08684, 2-503: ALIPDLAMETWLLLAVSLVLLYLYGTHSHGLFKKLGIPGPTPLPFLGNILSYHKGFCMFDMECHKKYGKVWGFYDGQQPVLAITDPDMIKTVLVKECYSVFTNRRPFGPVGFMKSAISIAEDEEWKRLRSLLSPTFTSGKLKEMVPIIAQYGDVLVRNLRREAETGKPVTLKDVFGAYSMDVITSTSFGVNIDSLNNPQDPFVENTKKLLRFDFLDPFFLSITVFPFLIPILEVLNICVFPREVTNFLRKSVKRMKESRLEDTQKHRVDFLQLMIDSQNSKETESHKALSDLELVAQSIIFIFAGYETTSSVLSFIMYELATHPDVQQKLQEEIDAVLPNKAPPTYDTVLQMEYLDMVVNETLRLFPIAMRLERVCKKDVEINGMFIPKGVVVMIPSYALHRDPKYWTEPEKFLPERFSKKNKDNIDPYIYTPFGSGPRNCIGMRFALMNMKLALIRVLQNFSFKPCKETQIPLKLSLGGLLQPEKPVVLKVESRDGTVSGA

Tests used:
CYP2C8 = biological target: T1, CYP2C8 (Homo sapiens, UniProt P10632); experiment: CYP2C8 inhibition in HLMs (amodiaquine); type: in vitro ADME; conditions: reversible inhibition, read-out: IC50 RI, CYP2C8
T1 construct: pooled HLMs (0.25 mg/mL); tissue XenoTech H2630; host or cells: pooled human liver microsomes, mixed gender
Procedure: Lignans were first dissolved in methanol. […] All microsomal incubations were performed in triplicate.

CYP3A = CYP3A (Homo sapiens, UniProt P08684); experiment: CYP3A inhibition in HLMs (midazolam, nifedipine, testosterone); conditions: human, pooled human liver microsomes, IC50 TDI, 30 min pre-incubation with NADPH generating system;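 note: pooled HLMs at 0.25 mg/mL in phosphate buffer, inhibitor across 0–50 µM, 10 min reaction at 37 °C after preincubation, probe metabolite quantified by LC-MS/MS, triplicate incubations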

With `COc1cc2c(c(OC)c1OC)-c1c(cc3c(c1OC)OCO3)C[C@H](C)[C@](C)(O)[C@H]2OC(=O)c1ccccc1` [Gomisin C, gomisin C] the IC50 (CYP2C8) was 16.5 µM and 10.9 µM.

`COc1c2c(cc3c1-c1c(cc4c(c1OC)OCO4)C[C@H](C)[C@H](C)C3)OCO2` [Wuweizisu C, wuweizisu C] gave an IC50 at 10 min (CYP3A; pH 7.4, probe nifedipine (cocktail set B), CYP3A (nifedipine), nifedipine) of 1200 nM and an IC50 at 10 min (CYP3A; pH 7.4, probe testosterone (cocktail set B), CYP3A (testosterone), testosterone) of 1200 nM.
